The values that follow come from PubChem BioAssay AID504700 (The Scripps Research Institute Molecular Screening Center, 2011).

By UniProt entry, the sequences of proteins in these tests, tags left out.
UniProt P31323, whole entry, looked up: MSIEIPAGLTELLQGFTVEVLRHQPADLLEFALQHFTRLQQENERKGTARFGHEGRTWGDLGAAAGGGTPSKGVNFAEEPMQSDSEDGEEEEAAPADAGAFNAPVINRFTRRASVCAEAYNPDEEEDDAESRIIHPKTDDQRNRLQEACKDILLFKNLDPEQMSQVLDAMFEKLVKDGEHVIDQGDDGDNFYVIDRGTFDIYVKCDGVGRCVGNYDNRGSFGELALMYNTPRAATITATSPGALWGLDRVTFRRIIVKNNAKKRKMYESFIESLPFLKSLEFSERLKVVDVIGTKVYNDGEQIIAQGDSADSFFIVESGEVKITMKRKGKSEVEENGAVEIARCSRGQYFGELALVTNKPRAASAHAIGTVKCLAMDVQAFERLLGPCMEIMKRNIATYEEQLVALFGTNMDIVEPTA

The list shows a part of the results, in another mix than the full data. Calls of active or inactive are those of the source.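 How the source made its calls: active means activation above a cutoff set at the mean over all compounds plus 3 SD (cut at about 18% in these data); inactive means the rest.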

This assay has as its target cAMP-dependent protein kinase catalytic subunit beta (Homo sapiens) + cAMP-dependent protein kinase type II-beta regulatory subunit (Homo sapiens) (UniProt P22694+P31323). Briefly: activators of PKA-R2B holoenzyme, primary screen, biochemical, fluorescence polarization, Cy5-IP20, human (AID 504700).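 Further: higher means more holoenzyme dissociation and a rise in polarization.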 To be noted: PKA-R2B holoenzyme dissociation, at 11.4 µM, active compounds read high, 0% DMSO only, 100% 113 µM cGMP, R2B truncated from residue 108, S112A mutant.
With `O=C(OC1CN2CCC1CC2)C1c2ccccc2C=Cc2ccccc21` (stereo not given), the activation is inactive: 8.32%.
The result for `CCOC(=O)N1CCC(Nc2ccc(C)cc2)CC1` reads inactive: -5.94%.
Take `N/C(=N\O)c1c(N)no[n+]1[O-]`: the activation was inactive: 4.04%.
As for `COc1ccc(C(=O)NCC2(N3CCOCC3)CCCCC2)cc1OC`, the figure is inactive: 2.67%.
The result for `COc1cc(C(=O)NCC2(N3CCOCC3)CCCCC2)cc(OC)c1C` reads inactive: -4.95%; that for `O=C(NCC1(N2CCOCC2)CCCCC1)c1cc(Br)ccc1Cl`, inactive: -1.52%.
The result for `CN(C)C1(CNC(=O)c2cccc(C#N)c2)CCCCC1` reads inactive: -1.64%; that for `c1ccc(CN2CCC(Nc3ccccc3)CC2)cc1`, inactive: -4.67%; that for `Cc1cc(N(CCCl)CCCl)ccc1C=O`, inactive: -7.96%.
Consider `CCCN1CCC(Nc2cc(OC)cc(OC)c2)CC1`, for which the activation was inactive: -4.68%.
`N#Cc1ccc(C(=O)NCC2(N3CCCCC3)CCCCC2)cc1`: the activation is inactive: -6.7%.
The result for `CC(C)(C)OC(=O)N1CCC(N(C(=O)c2ccccc2)c2ccc(Cl)cc2)CC1` reads inactive: -10.6%; that for `O=C(NCC1(N2CCCCC2)CCCCC1)c1ccco1`, inactive: -3.81%; that for `Cn1c(=O)[nH]cc(N(CCCl)CCCl)c1=O`, inactive: 5.4%.
`CN(C)c1ccc(C(=O)NCC2(N3CCCCC3)CCCCC2)cc1`: the activation was inactive: 4.17%.
As for `Cc1ccccc1NC1(C#N)CCN(Cc2ccccc2)CC1`, the figure is inactive: 2.4%; as for `CCN1CCC(Nc2cccc(F)c2)CC1`, inactive: 1.68%; as for `Cc1ccc(C(=O)NCC2(N3CCCCC3)CCCCC2)o1`, inactive: -3.84%.
Consider `Fc1ccccc1NC1CCN(Cc2ccccc2)CC1`, for which the activation is inactive: 1.79%.
The result for `Cc1ccc(NC2(C#N)CCN(Cc3ccccc3)CC2)cc1` reads inactive: -0.55%; that for `CC(=O)N(c1ccccc1)C1CCNCC1`, inactive: 1.47%.
As for `COc1cc(OC)cc(C(=O)NCC2(N3CCCCC3)CCCCC2)c1`, the activation was inactive: 1.89%.
As for `CN1CCC(Nc2ccc(Cl)cc2)CC1`, the figure is inactive: -0.15%; as for `COc1cccc(C(=O)N(c2cc(C)cc(C)c2)C2CCN(C(=O)OC(C)(C)C)CC2)c1`, inactive: 7.46%; as for `COc1cc(OC)cc(C(=O)NCC2(N3CCOCC3)CCCCC2)c1`, inactive: 6.13%.
Regarding `CCC(CO)(C(=O)OC1CN2CCC1CC2)c1ccccc1` (stereo not given), the activation was inactive: -1.75%.
The result for `CC(C)(C)OC(=O)N1CCC(Nc2ccccc2)CC1` reads inactive: -11.2%; that for `O=C(O)C1(Nc2ccccc2)CCN(Cc2ccccc2)CC1`, inactive: 3.7%; that for `CCCOc1ccc(C(=O)NCC2(N(C)C)CCCCC2)cc1`, inactive: -8.03%.
As for `CCOc1ncccc1C(=O)NCC1(N2CCOCC2)CCCCC1`, the activation is inactive: 1.66%.
